What was measured:
[1] = Selectivity ratio of Ki for human dopamine D2 receptor to Ki for rat dopamine D4 receptor
[2] = Selectivity ratio of Ki for human dopamine D3 receptor to Ki for rat dopamine D4 receptor

Question: Which results are given for Fc1ccc2c(c1)CC(CCN1CCN(c3ccc(Cl)cc3)CC1)C2 (centres undefined)?
Answer: Ratio Ki [1]: 109; Ratio Ki [2]: 213

Question: What does the source list for Fc1ccc(OCCCN2CCN(c3ccc(Cl)cc3)CC2)cc1?
Answer: Ratio Ki [1]: 56.5; Ratio Ki [2]: 128

— ChEMBL document CHEMBL3286287, “Identification of a new selective dopamine D4 receptor ligand” (Bioorg Med Chem, 2014)
